In patent publication US11718612B2, “Inhibitors of receptor interacting protein kinase I for the treatment of disease” (Board of Regents, The University of Texas System, priority 2019, dated 2023):

Test system: U937 cells
Test: Human U937 cellular necroptosis assay
Assay type: cell-based
Conditions: U-937; U937 cells stimulated with 25 ng/mL human TNFalpha and 25 μM z-VAD-FMK; 22 hr; Cell Titer-Glo viability
Procedure: Human U937 Cellular Necroptosis Assay
The human monocytic cell line U937 (CRL-1593.2) may be purchased from ATCC. The cells are routinely maintained in RPMI-1640 Medium (Gibco, Catalog #11875-093) supplemented with 10% heat inactivated fetal bovine serum (Gibco, Catalog #16140-071), 100 units/mL penicillin and 100 μg/mL streptomycin (Gibco, Catalog #15140-122), in a humidified incubator (37° C., 5% CO2). For the assay, cells are resuspended in RPMI-1640 phenol red free Media (Gibco, Catalog #11835-030) supplemented with 10% fetal bovine serum (Sigma, Catalog #F2442), 100 units/mL penicillin and 100 ug/mL streptomycin. Cells are stimulated with 25 ng/mL human TNFalpha (Cell Sciences, Catalog #CSI15659B) and 25 μM z-VAD-FMK (R&D Systems, Catalog #FMK001) followed by seeding 5000 cells per well in a volume of 40 μL to a white, CulturPlate-384 (Perkin Elmer, Catalog #6007680). Stock solutions of the test compounds are prepared in 100% DMSO (Sigma, Catalog #D2650) and serially diluted 1:3 using 100% DMSO. Compounds are additionally diluted 1:40 in assay medium, and 10 μL/well was transferred to the plate. […] After 22 hr, viability is assessed with the addition of 20 μL of Cell Titer-Glo 2.0 (Promega, Catalog #G9243). […] Luminescence is measured using a PerkinElmer Envision™ plate reader. IC50 values are calculated using a four-parameter logistic curve fit using Genedata Screener software. […]

C[C@H](c1cccc(C#N)c1)n1cnc(C(=O)Nc2cccc(Cl)c2F)n1 (single isomer, unassigned) [Example 56a]
IC50: 1380 nM
